From patent US8557833B2, “Aminopyrimidines useful as kinase inhibitors” (priority 2005, dated 2013)

These molecules were tested against T1, JAK3 (Homo sapiens, UniProt P52333) (assay: biochemical). Conditions: not given.
T1 sequence (P52333 1-1124): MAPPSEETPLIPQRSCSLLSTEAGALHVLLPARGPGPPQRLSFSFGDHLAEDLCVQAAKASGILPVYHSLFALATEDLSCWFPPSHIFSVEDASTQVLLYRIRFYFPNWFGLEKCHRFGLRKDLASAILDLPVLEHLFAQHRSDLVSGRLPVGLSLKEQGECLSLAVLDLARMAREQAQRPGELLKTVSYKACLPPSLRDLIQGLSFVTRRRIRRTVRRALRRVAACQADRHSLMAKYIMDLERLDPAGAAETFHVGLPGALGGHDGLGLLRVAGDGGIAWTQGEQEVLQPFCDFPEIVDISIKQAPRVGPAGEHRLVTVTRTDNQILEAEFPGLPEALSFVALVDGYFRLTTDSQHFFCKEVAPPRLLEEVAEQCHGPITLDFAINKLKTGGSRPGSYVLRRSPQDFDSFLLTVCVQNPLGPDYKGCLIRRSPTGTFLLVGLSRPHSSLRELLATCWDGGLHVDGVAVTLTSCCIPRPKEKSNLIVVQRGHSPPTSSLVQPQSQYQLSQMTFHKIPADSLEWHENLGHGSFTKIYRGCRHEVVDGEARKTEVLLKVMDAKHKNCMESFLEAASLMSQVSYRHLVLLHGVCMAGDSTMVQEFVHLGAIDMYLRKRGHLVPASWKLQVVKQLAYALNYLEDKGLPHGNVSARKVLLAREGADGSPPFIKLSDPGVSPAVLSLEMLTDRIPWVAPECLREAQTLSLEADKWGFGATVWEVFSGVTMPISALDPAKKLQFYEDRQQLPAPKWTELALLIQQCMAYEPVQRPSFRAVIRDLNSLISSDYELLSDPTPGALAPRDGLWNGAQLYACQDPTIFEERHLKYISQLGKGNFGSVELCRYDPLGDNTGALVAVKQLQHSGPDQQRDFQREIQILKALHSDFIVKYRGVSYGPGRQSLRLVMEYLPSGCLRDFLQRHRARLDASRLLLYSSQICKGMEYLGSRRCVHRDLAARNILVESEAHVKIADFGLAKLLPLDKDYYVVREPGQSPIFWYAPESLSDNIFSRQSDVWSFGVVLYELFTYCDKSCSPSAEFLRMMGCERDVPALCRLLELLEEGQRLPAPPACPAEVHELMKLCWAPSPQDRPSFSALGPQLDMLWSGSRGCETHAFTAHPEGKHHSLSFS

Row | Ki | SMILES
1 | 180 nM | Cc1cc(Nc2cc(N3CCC3)nc(Sc3ccc(NC(=O)c4cccc(Cl)c4)cc3)n2)n[nH]1 [Compound I-12]
2 | 180 nM | Cc1cc(Nc2cc(N3CCC3)nc(Sc3ccc(NC(=O)c4ccccc4C(F)(F)F)cc3)n2)[nH]n1 [Compound I-14]
3 | 130 nM | CCc1cc(Nc2cc(N3CCC3)nc(Sc3ccc(NC(=O)c4ccccc4Cl)cc3)n2)n[nH]1 [Compound I-16]
4 | 200 nM | COc1cccc(C(=O)Nc2ccc(Sc3nc(Nc4cc(C)n[nH]4)cc(N4CCC4)n3)cc2)c1 [Compound I-18]
5 | 270 nM | Cc1cc(Nc2cc(N3CCC3)nc(Sc3ccc(NC(=O)c4ccccc4C(F)F)cc3)n2)[nH]n1 [Compound I-19]
6 | 260 nM | Cc1cc(Nc2cc(N3CCC3)nc(Sc3ccc(NC(=O)c4cc(Cl)ccc4Cl)cc3)n2)n[nH]1 [Compound I-21]

Further lines, the molecule ahead of its results:

Row | SMILES | Ki
7 | Cc1cc(Nc2cc(N3CCC3)nc(Sc3ccc(NC(=O)c4c(F)cccc4F)cc3)n2)[nH]n1 [Compound I-2, N-{4-[4-Azetidin-1-yl-6-(5-methyl-2H-pyrazol-3-ylamino)-pyrimidin-2-ylsulfanyl]-phenyl}-2,6-Difluoro-benzamide] | 150 nM
8 | Cc1cc(Nc2cc(N3CCC3)nc(Sc3ccc(NC(=O)c4ccccc4F)cc3)n2)[nH]n1 [Compound I-3] | 130 nM
9 | Cc1cccc(C(=O)Nc2ccc(Sc3nc(Nc4cc(C)[nH]n4)cc(N4CCC4)n3)cc2)c1 [Compound I-4] | 410 nM
10 | Cc1cc(Nc2cc(N3CCC3)nc(Sc3ccc(NC(=O)c4ccccc4C)cc3)n2)[nH]n1 [Compound I-5] | 460 nM
11 | COc1ccccc1C(=O)Nc1ccc(Sc2nc(Nc3cc(C)[nH]n3)cc(N3CCC3)n2)cc1 [Compound I-6] | 820 nM
12 | Cc1cc(Nc2cc(N3CCC3)nc(Sc3ccc(NC(=O)c4cccc(F)c4F)cc3)n2)[nH]n1 [Compound I-7] | 150 nM
13 | Cc1cc(Nc2cc(N3CCC3)nc(Sc3ccc(NC(=O)c4ccccc4OC(F)(F)F)cc3)n2)[nH]n1 [Compound I-8] | 810 nM
14 | Cc1cc(Nc2cc(N3CCC3)nc(Sc3ccc(NC(=O)c4c(Cl)cccc4Cl)cc3)n2)n[nH]1 [Compound I-11] | 270 nM

Same assay, conditions: 5 μM ATP, 1 μM poly(Glu)4Tyr, 25° C., 1 nM JAK3; read-out: JAK-3 Ki

Row | Ki | SMILES
15 | 500 nM | Cc1cc(Nc2cc(N3CCC3)nc(Sc3ccc(NC(=O)c4ccccc4Cl)nc3)n2)[nH]n1 [Compound I-24]
